{"source": "DBAASP", "key": {"[1]": {"tested_on": "Escherichia coli K-12", "test": "≥ marks a high value that may be exact or a test limit, other limits are often not marked, values filed in µg/mL are converted to µM"}, "[2]": {"tested_on": "Staphylococcus aureus ATCC 12600", "test": "≥ marks a high value that may be exact or a test limit, other limits are often not marked, values filed in µg/mL are converted to µM"}}}
{"smiles": "CC(C)C[C@H](NC(=O)[C@@H](NC(=O)[C@H](C)NC(=O)CNC(=O)[C@H](Cc1c[nH]c2ccccc12)NC(=O)[C@H](CC(N)=O)NC(=O)[C@@H](N)CC(C)C)C(C)C)C(=O)N[C@@H](CCCCN)C(=O)N[C@@H](Cc1cnc[nH]1)C(=O)N[C@H](C(=O)N[C@H](C(=O)N[C@@H](CCCCN)C(=O)O)C(C)C)C(C)C", "note": "[LNWGAVLKHVVK]", "values": [{"measurement": "MIC", "setting": "[1]", "result": "≥ 64", "unit": "µM"}, {"measurement": "MIC", "setting": "[2]", "result": "≥ 128", "unit": "µM"}]}
{"smiles": "CC(C)C[C@H](NC(=O)[C@H](CC(C)C)NC(=O)[C@H](CC(N)=O)NC(=O)[C@H](CC(N)=O)NC(=O)[C@H](CC(C)C)NC(=O)[C@@H](N)C(C)C)C(=O)N[C@@H](CCCN=C(N)N)C(=O)O", "note": "[VLNNLLR]", "values": [{"measurement": "MIC", "setting": "[2]", "result": "≥ 128", "unit": "µM"}]}
